# Data as given in ChEMBL document CHEMBL1132136, “Ring constrained analogues of the orvinols: the furanomorphides” (1999).
# Calls of active or inactive are those of the source. The calls are words filed in the database; no cut-off is given here.
# Legend:
# Cavia porcellus = organism: Cavia porcellus; test: Agonistic activity in electrically stimulated guinea pig ileum preparation (GPI) in presence of mu-selective antagonist CTAP; NR:Not reversed
# Mus musculus = organism: Mus musculus; test: Agonist activity was evaluated using mouse vas deferens assay in presence of delta-selective antagonist naltrindole (NTI); NR:Not reversed
Compound,Ke (Cavia porcellus),Ke (Mus musculus)
CC1(C)OC23CCC4(CC2C1(C)C)C1Cc2ccc(O)c5c2C4(CCN1CC1CC1)C3O5 (centres undefined),inactive,–
CO[C@@]12CC[C@@]3(C[C@@H]1[C@](C)(O)C(C)(C)C)[C@H]1Cc4ccc(O)c5c4[C@@]3(CCN1CC1CC1)[C@H]2O5,inactive,inactive
C[C@@H](NC(=O)[C@@H](N)Cc1ccc(O)cc1)C(=O)NCC(=O)N(C)[C@@H](Cc1ccccc1)C(=O)NCCO,–,Not reversed
